# Binding of CDR-mutated scFvs to a peptide of the spike HR2 region

Antigen: PDVDLGDISGINAS, a 14-residue peptide of the SARS-CoV-2 spike HR2 region.

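The parent was found by panning a naive human phage display library on the peptide. The variants were designed computationally from a first round of random CDR variants and then made and measured. Several design methods are mixed in this list. AlphaSeq pools MATa yeast showing the antibodies with MATalpha yeast showing the peptide. Pairs that bind mate more often; barcode pairs of the diploids are counted by sequencing. A regression on co-assayed BCL2-family reference pairs converts the normalised counts of each replicate to an apparent Kd. Mating was done six times.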

Parent: Ab-14, a human scFv built as VH, a 15-residue (Gly4Ser)3 linker, VL. Only the CDRs of the light chain vary.
VH: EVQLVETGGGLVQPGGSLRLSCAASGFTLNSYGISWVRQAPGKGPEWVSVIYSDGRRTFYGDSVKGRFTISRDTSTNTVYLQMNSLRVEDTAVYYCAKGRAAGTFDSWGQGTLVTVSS
VL: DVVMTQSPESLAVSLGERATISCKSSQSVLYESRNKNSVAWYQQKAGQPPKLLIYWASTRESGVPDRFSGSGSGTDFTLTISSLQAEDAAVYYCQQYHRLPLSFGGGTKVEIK

Variants are written as CDR1, CDR2 and CDR3 of the light chain (limits as in the source). Parent: KSSQSVLYESRNKNSVA, WASTRES, QQYHRLPLS.
Variants here have more than six changes.
Each Kd is an estimate from the mating assay, the geometric mean of the replicates in which the pair was seen; lower is stronger.
Where no diploid with the target was found in any replicate, the entry reads "nd": below detection, most likely a poor binder, though not proof of it.

CDR-L1	CDR-L2	CDR-L3	apparent Kd	detected
KISTSALYESINKNSVA	ELTTRGS	QQYERLPLS	15 nM	6 of 6
KLQTLTNTANIGESSVA	DVNVHVD	QQYFRLPLS	860 nM	3 of 6
MVNTNLEHQAQRDNSIA	EADMVAA	QDYDRLPLI	180 nM	5 of 6
IVSQLMLWGMHARNSIA	EAVTRLN	QQYDRLPLI	nd	0 of 6
NLMSGMSELSVWSYNIA	SANIRGS	QQYFRLPLL	5.8 nM	6 of 6
KISGLVNFFGHAINSVA	EMETREN	QQYDRLPLS	11 nM	6 of 6
KVEQSSPYESRNKNSVA	NASLRCS	QQYHRLPLS	2.5 nM	6 of 6
SLMQVGGYESNTHNSIA	DLRTRES	QQYHRLPLS	12 nM	6 of 6
KARQSNLYESRNQNSVA	NASQRLD	QQYHRLPLS	2.8 nM	6 of 6
KLSGIMRVETKKSNSIA	EMTTRGE	QQYDRLPLS	7.3 nM	6 of 6
TISQMSTLFSQTINNVA	EVSTREQ	QQYDRLPLM	5.3 nM	6 of 6
MLSDLVKMGSRNTGSVA	DNSTRGS	QQYDRLPLS	9.9 nM	6 of 6
KLEGSNLYESRNGNSVA	NASTRSS	QQYHRLPLS	680 pM	6 of 6
TISQMFLGESRNRQSVA	QASTRES	QSYDRLPLS	5.3 nM	6 of 6
SIGLATMLEEYARNSVA	NNSTRES	QQYDRLPLS	150 nM	6 of 6
KISMLYNYAQTNKNSIA	EMTTRES	QHYHRLPLS	37 nM	6 of 6
KISHNFLIESRNLNSVA	EMTTREY	QSYDRLPLS	160 nM	4 of 6
HMRMDCYQYDNYGKAVA	HANQRHN	QQYSRLPFS	16 nM	6 of 6
KVSEFMRGLMKKSDSIA	DNETRGA	QQYDRLPLS	25 nM	6 of 6
MISQLINMGYFAINSVA	QAETRCN	QQYDRLPLE	nd	0 of 6
MISQMYNMGQFAINSVA	QASERNT	QQYDRLPLI	82 nM	6 of 6
KIGHTLNTLYEKANNVA	DLVERVN	QQYHRLPLS	3.7 nM	6 of 6
MISQIYNMGQFAINSVA	QASVRNV	QQYDRLPLM	50 nM	4 of 6
KLQQQSLYGSRNKNSVA	EASTREQ	QQYHRLPLS	1.6 nM	6 of 6
TLMMDPTEQRDSKHAIA	DNNQRDR	QQYHRLPLY	140 nM	6 of 6
KLSGLMSSSKFAKDNVA	ENNTRED	QQYNRLPLS	38 nM	6 of 6
KLMQLGHYESRNANNVA	NASTREQ	QQYHRLPLS	950 pM	6 of 6
NLGGEDANDNRGMMAVA	DVNTVGE	QHYNRLPLS	57 nM	6 of 6
KLSGSDLYEWRNCNNVA	NASQREV	QQYHRLPLS	1.4 nM	6 of 6
HISYMDGHDGKNIHNVA	DTGVTSR	QQYSRLPLI	1.8 nM	6 of 6
KIIQSVAMSSRNKDSIA	DNSTRES	QQYHRLPLS	29 nM	6 of 6
KFSQMVLTGAYVSNSVA	QMSTRVN	QQYHRLPLS	6.0 nM	6 of 6
KLPHLSFVHDREKNNVA	DLNRKAA	QQYDRLPLA	2.0 nM	6 of 6
KLSPSVMGWMRNKNSVA	NASTRRS	QQYHRLPLS	8.5 nM	6 of 6
QMTENDHGHQAGVGSIA	DATETME	QQYMHLPLS	1.4 nM	6 of 6
MLSDTVMQGMYSRNSVA	QESTRAE	QQYHHLPLS	4.3 nM	6 of 6
MMSQVHGLGQRHRNNVA	QTSTRED	QQYDRLPLI	17 nM	6 of 6
TISELYNQALGIRNNVA	NNQTRED	QQYDRLPLS	130 nM	1 of 6
KLMQSMLYESRNSNSVA	QASTREH	QQYHRLPLM	1.8 nM	6 of 6
IVSQLMLWGMHAKNSIA	EAEKRIN	QQYHRLPLM	nd	0 of 6
DMTVVDNGASKIQNSVA	HGVEKCD	QQYSRLPLA	990 pM	6 of 6
KLKGSVGYEERNKNSVA	GASQRES	QQYHRLPLS	530 pM	6 of 6
MISQLYNMGQFAINSVA	QAETRNE	QQYDRLPLI	34 nM	6 of 6
KISQMSTIESISHNSVA	QTSTREK	QQYDRLPLS	1.6 nM	6 of 6
KVSQSQCYEERNKNNVA	QASDRMS	QQYHRLPLS	640 pM	6 of 6
KLAQSVGMTSHHINSVA	QSTTREE	QQYNRLPLS	1.4 nM	6 of 6
ILSQSMLYESRMKNSVA	NASQRWS	QQYHRLPLS	1.4 nM	6 of 6
NLMNGGSELSVWSRNIA	DANIRES	QQYFRLPLL	1.0 nM	6 of 6
HVSQLLTDEMYREYNVA	ETSHVEE	QQYERLPLI	100 nM	6 of 6
KLSMSMRFLTEEKNSIA	ELVTRMS	QQYHRLPLS	nd	0 of 6
TLGMVTMQLSVNKNSVA	DANTSED	QQYDRLPLS	36 nM	1 of 6
MLDEYQMYDAANLNAIA	DANCTMF	QQYYSLPLS	66 nM	6 of 6
KLQFSEEYGSRNKNSVA	SASQRES	QQYHRLPLS	1.1 nM	6 of 6
KISQMVRVGSTHKNSIA	EEQTRAK	QQYHRLPLA	78 nM	6 of 6
KLSQVTHSEHKNKNSIA	EMVTREK	QQYDRLPLS	8.4 nM	6 of 6
MISNVMNTLTRHGNNVA	DLSERED	QQYFRLPLS	10 nM	6 of 6
KLAMILSMWAGTYHGVA	DANHKAD	QQYNRLPLS	1.6 nM	6 of 6
KLSQGELMESRNKNSVA	EASCREE	QQYHRLPLS	1.0 nM	6 of 6
TLSHSMDMTSRNVNSVA	DLTTRGN	QQYHRLPLS	1.4 nM	6 of 6
MISNVMNTLTRNGNNVA	DLAERED	QQYFRLPLS	830 pM	6 of 6
MISQVLNTLTKTGNNVA	DLAERED	QQYFRLPLS	12 nM	6 of 6
MMSQVTGSGQRHRNNVA	QTSTREI	QQYDRLPLI	6.4 nM	6 of 6

A selection of 5 entries from above:

CDR-L1	CDR-L2	CDR-L3	apparent Kd	detected
KLEGSNLYESRNGNSVA	NASTRSS	QQYHRLPLS	680 pM	6 of 6
KIGHTLNTLYEKANNVA	DLVERVN	QQYHRLPLS	3.7 nM	6 of 6
KLSGLMSSSKFAKDNVA	ENNTRED	QQYNRLPLS	38 nM	6 of 6
KLMQLGHYESRNANNVA	NASTREQ	QQYHRLPLS	950 pM	6 of 6
MISNVMNTLTRHGNNVA	DLSERED	QQYFRLPLS	10 nM	6 of 6

As a blank, each scFv also met three strains without target: over all light chain designs, 4% of these pairings were detected, typically at 430 nM and seldom below 38 nM.
The range of this assay differs from that of the first round, and the authors advise against merging the two.
The authors' rule: three or more of the six replicates give a measured affinity, fewer mean a poor binder.
Of ten entries with the parent sequence, four were seen in most replicates (averages 2.2 nM to 240 nM), three in one and three in none, so single entries are noisy.

Reference: Li et al. 2023, doi:10.1038/s41467-023-39022-2. File: FLAb, binding data.